Measured values: ChEMBL document CHEMBL1123071 (J Med Chem, 1985)

Test: physchem

Ic1ccccc1 [IODOBENZENE] showed a logP of 3.25.
